According to PubChem BioAssay AID624173 (National Center for Advancing Translational Sciences (NCATS), 2012):
“And” between values parts separate entries of the source, which are not always exact repeats. Identical values can stand only once. This is a selection; strong and weak results do not stand in their true shares. Some results for these compounds are left out of this collection, so the calls shown say nothing about other tests. The source made the active and inactive calls. Calls come from the whole dose curve; as a rule, active = well fitted inhibition curve with a large enough effect; inconclusive = small, poorly fitted or top-dose-only effect; inactive = flat fitted curve, though single readings scatter.
% is set by controls: 0 for no effect and ±100 for the full control effect.
Note: nearly all actives have a fitted effect of over 50% in size.

The compounds below were run against pyruvate kinase (Trypanosoma brucei) (UniProt Q57TT1) (assay: qHTS of Trypanosoma Brucei Inhibitors). Conditions: TbPYK enzyme, Kinase-Glo Plus ATP luminescence, 45 min; at 76.8 µM (top of the series).
In the case of `COc1cc(C(=O)NCC2(N(C)C)CCCCC2)c([N+](=O)[O-])cc1OC`, the activity, negative = inhibition is reported as inactive: 0.977%. For `CN(C)C1(CNC(=O)c2ccc(Br)cc2)CCCCC1`, the activity, negative = inhibition was inactive: 5.99%. `O=C(NCC1(N2CCCCC2)CCCCC1)c1cccc(Cl)c1` was tested, and the activity, negative = inhibition was inactive: 0.265%. In the case of `COc1ccc(C(=O)NCC2(N(C)C)CCCCC2)cc1Cl`, the activity, negative = inhibition is reported as inactive: -7.17%. With `COc1ccc(Cl)cc1C(=O)NCC1(N(C)C)CCCCC1` the activity, negative = inhibition was inactive: 0.539%. In the case of `COc1cccc(C(=O)NCC2(N3CCCCC3)CCCCC2)c1`, the activity, negative = inhibition is reported as inactive: -22.5%. For `CC(C)COc1ccc(C(=O)NCC2(N(C)C)CCCCC2)cc1`, the activity, negative = inhibition was inactive: -5.32%. `O=C(OC1CN2CCC1CC2)C(CO)(c1ccccc1)c1ccccc1` (configuration not stated) was tested, and the activity, negative = inhibition was inactive: -4.39%. In the case of `COc1cccc(C(=O)NCC2(N3CCOCC3)CCCCC2)c1`, the activity, negative = inhibition is reported as inactive: -11.4%. In the case of `CN(C)c1cccc(C(=O)NCC2(N(C)C)CCCCC2)c1`, the activity, negative = inhibition is reported as inactive: -3.19%. With `O=C(OCCN1CCCC1)C(O)(c1ccccc1)c1ccccc1` the activity, negative = inhibition was inactive: 2.96%. In the case of `CC(C)Oc1ccc(C(=O)NCC2(N(C)C)CCCCC2)cc1`, the activity, negative = inhibition is reported as inactive: -1.41% and inactive: 0.804%. With `COc1ccc(Br)c(C(=O)NCC2(N3CCCCC3)CCCCC2)c1` the activity, negative = inhibition was inactive: 1.47%. With `Cc1cccc(C(=O)NCC2(N(C)C)CCCCC2)c1` the activity, negative = inhibition was inactive: 1.09%. In the case of `COc1cc(C(=O)NCC2(N(C)C)CCCCC2)cc(OC)c1OC`, the activity, negative = inhibition is reported as inactive: 0.856%. In the case of `C=C(C)C#CC(O)(C(=O)OC1CCN(C)CC1)c1ccccc1` (configuration not stated), the activity, negative = inhibition is reported as inactive: 6.58%. `CN1[C@@H]2CC[C@H]1CC(OC(=O)C(O)(c1ccccc1)c1ccccc1)C2` (some centres not stated) was tested, and the activity, negative = inhibition was inactive: -9.22%. `O=C(NCC1(N2CCCCC2)CCCCC1)c1cc([N+](=O)[O-])ccc1Cl` was tested, and the activity, negative = inhibition was inactive: 3.43%. For `CN(C)C1(CNC(=O)c2ccccc2F)CCCCC1`, the activity, negative = inhibition was inactive: -5.4%. With `Cc1ccc(C(=O)NCC2(N3CCCCC3)CCCCC2)cc1` the activity, negative = inhibition was inactive: -7.62%. `CC(C)N1C(=O)CC2(CCN(CCOC(=O)C(O)(c3ccccc3)c3ccccc3)CC2)C1=O` was tested, and the activity, negative = inhibition was inactive: -10.4%. For `COc1cc(SC)ccc1C(=O)NCC1(N(C)C)CCCCC1`, the activity, negative = inhibition was inactive: 0.515%. In the case of `CN(C)C1(CNC(=O)c2cccc(Cl)c2)CCCCC1`, the activity, negative = inhibition is reported as inactive: 3.98%. With `CCN(CC)CC(C)C(C)OC(=O)C(O)(c1ccccc1)c1ccccc1` (configuration not stated) the activity, negative = inhibition was inactive: 1.5%. In the case of `CN1CCCC(OC(=O)C(O)(c2ccccc2)c2ccccc2)C1` (configuration not stated), the activity, negative = inhibition is reported as inactive: 19.5%. With `CCCCOc1ccccc1C(=O)NCC1(N(C)C)CCCCC1` the activity, negative = inhibition was inactive: -4%. In the case of `CN(C)c1ccc(C(=O)NCC2(N(C)C)CCCCC2)cc1`, the activity, negative = inhibition is reported as inactive: 1.86%. `CN(C)C1CCCC1OC(=O)C(O)(c1ccccc1)c1ccccc1` (configuration not stated) was tested, and the activity, negative = inhibition was inactive: -19.5%. In the case of `Cc1ccccc1C(=O)NCC1(N2CCCCC2)CCCCC1`, the activity, negative = inhibition is reported as inactive: 7.04%. `CN(C)C1(CNC(=O)c2ccccc2[N+](=O)[O-])CCCCC1` was tested, and the activity, negative = inhibition was inactive: 3.99%. With `O=C(NCC1(N2CCCCC2)CCCCC1)c1cccc(Br)c1` the activity, negative = inhibition was inactive: -0.427%. In the case of `CCN1CCCC(OC(=O)C2(O)c3ccccc3C=Cc3ccccc32)C1` (configuration not stated), the activity, negative = inhibition is reported as inactive: 4.12%. `Cc1cc(C(=O)NCC2(N3CCCCC3)CCCCC2)ccc1[N+](=O)[O-]` was tested, and the activity, negative = inhibition was inactive: 3.42%. With `CCOc1cccc(C(=O)NCC2(N(C)C)CCCCC2)c1` the activity, negative = inhibition was inactive: 4.97%. `COc1ccc(C(=O)NCC2(N(C)C)CCCCC2)cc1` was tested, and the activity, negative = inhibition was inactive: 4.68%. In the case of `O=C(NCC1(N2CCCCC2)CCCCC1)c1cc(F)c(F)cc1Cl`, the activity, negative = inhibition is reported as inactive: -1.97%. With `C=CCN1CCN(CCOC(=O)C(O)(c2ccccc2)c2ccccc2)CC1` the activity, negative = inhibition was inactive: 2.32%.
